Earlier results, collected in patent US8685443B2, “Sequestering subunit and related compositions and methods” (Alpharma Pharmaceuticals LLC, priority 2002, dated 2014).

Test system: opioid receptors
Details: cited from earlier work

In the case of C=CCN1CC[C@]23c4c5ccc(O)c4O[C@H]2C(=O)CC[C@@]3(O)[C@H]1C5 [naloxone], the “effect on morphine-like opioid agonist” value (0.4-0.8 mg intramuscularly or intravenously in man) is listed as “prevent or promptly reverse the effects of morphine-like opioid agonist” and the “block of the effect of heroin” value (one mg intravenously against 25 mg of heroin) is listed as “block completely”.
